Assay results reported in article PMC6753081 (Nature Communications, 2019).

Protein sequences, listed by entry. Tags and fused reporters are not part of them. Lines headed by an entry give the natural chain unless they say otherwise; changes in a name come on top.
UniProt Q4WLV6: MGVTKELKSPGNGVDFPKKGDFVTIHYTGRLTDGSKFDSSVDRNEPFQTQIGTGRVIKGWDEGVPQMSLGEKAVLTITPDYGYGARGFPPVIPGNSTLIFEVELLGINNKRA

Target: T1, AfFKBP12 (Aspergillus fumigatus, UniProt Q4WLV6)
T1 construct: gene fpr1A
Conditions: pH […] °C, […] phosphate, […] NaCl; […] protein

C=CC[C@@H]1/C=C(\C)C[C@H](C)C[C@H](OC)[C@H]2O[C@@](O)(C(=O)C(=O)N3CCCC[C@H]3C(=O)O[C@H](/C(C)=C/[C@@H]3CC[C@@H](O)[C@H](OC)C3)[C@H](C)[C@@H](O)CC1=O)[C@H](C)C[C@@H]2OC [FK506]
1H-15N HSQC NMR titration: AfFKBP12 residues Ile25, His26, Tyr27, Val102, and Glu103 showed large chemical shift factors
